The results in this text go back to BindingDB's records for doi:10.1016/j.bmcl.2007.11.060 (Amgen, 2008).

pIC50: −log10 of the molar value.

This assay can be described thus: Antagonist activity at CXCR3 assessed as ITAC-mediated migration of human PBMC in presence of 100% human plasma.

The term pIC50 denotes the negative decadic logarithm of the IC50, by convention in mol/L. Take `CCS(=O)(=O)CCN(C(=O)Cc1ccc(F)c(C(F)(F)F)c1)[C@H](C)c1nc2ccccn2c(=O)c1-c1ccc(C#N)cc1` [(R)-N-(1-(3-(4-cyanophenyl)-4-oxo-4H-pyrido[1,2-a]pyrimidin-2-yl)ethyl)-N-(2-(ethylsulfonyl)ethyl)-2-(4-fluoro-3-(trifluoromethyl)phenyl)acetamide]: the pIC50 was 7.39.
